The entries are a selection whose mix differs from that of the whole data set. Some of these compounds have results that are not shown, active ones among them. The source made the active and inactive calls.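 The calls were made as follows: active = highest replicate inhibition of at least 50% and at least 75% of replicates reaching 50%; inconclusive = only one of the two criteria met; inactive = both criteria failed.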

Amino acid sequences for entries named in this document (tags omitted).
UniProt Q00535, whole entry, looked up: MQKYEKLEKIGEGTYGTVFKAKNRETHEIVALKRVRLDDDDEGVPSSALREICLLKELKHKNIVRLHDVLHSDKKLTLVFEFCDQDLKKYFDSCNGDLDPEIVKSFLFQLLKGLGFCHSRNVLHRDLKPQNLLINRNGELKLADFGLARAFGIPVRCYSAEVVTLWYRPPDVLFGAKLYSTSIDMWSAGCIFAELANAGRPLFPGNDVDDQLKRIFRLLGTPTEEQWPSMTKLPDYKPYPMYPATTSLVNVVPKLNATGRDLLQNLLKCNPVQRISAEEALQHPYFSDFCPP
UniProt Q15078, whole entry, looked up: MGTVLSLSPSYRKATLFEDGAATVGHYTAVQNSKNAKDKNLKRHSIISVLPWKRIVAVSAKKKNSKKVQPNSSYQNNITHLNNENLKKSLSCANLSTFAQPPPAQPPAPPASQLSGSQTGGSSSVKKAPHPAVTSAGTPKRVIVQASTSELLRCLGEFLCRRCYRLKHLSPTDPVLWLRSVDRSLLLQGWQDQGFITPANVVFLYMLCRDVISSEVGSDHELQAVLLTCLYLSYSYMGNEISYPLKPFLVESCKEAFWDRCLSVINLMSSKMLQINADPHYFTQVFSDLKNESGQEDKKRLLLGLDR

The results in this text go back to PubChem BioAssay AID488839 (Broad Institute, 2010).

For the experiment, the target named is Cyclin-dependent kinase 5 (Homo sapiens) + Cyclin-dependent kinase 5 activator 1 (Homo sapiens) (UniProt Q00535+Q15078). As to the kind of experiment: CDK5/p35 phosphotransfer blockade – biochemical, single concentration, primary screen (AID 488839).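 Also: plate controls were DMSO neutral control for no effect and GW8510 at 10 µM for full effect.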 The note with it: Recombinant CDK5/p35, ADP-Glo luminescence, 60 min; at 10 µM; active compounds read high. (In general: ADP-Glo turns the ADP formed in a reaction into a luminescent signal.)
For `COc1cccc(C(=O)NCC2(N3CCCCC3)CCCCC2)c1`, the inhibition is inactive: 0.689%.

As for `COc1ccc(Cl)cc1C(=O)NCC1(N(C)C)CCCCC1`, the inhibition was inactive: -0.454%.

Consider `O=C(NCC1(N2CCCCC2)CCCCC1)c1cccc(Cl)c1`, for which the inhibition was inactive: 1.55%.

`CN(C)C1(CNC(=O)c2ccc(Br)cc2)CCCCC1`: the inhibition was inactive: -0.31%.

For `COc1cc(C(=O)NCC2(N(C)C)CCCCC2)c([N+](=O)[O-])cc1OC`, the inhibition is inactive: -0.445%.

With `COc1ccc(Br)c(C(=O)NCC2(N3CCCCC3)CCCCC2)c1`, the inhibition is inactive: -4.33%.

In the case of `CC(C)Oc1ccc(C(=O)NCC2(N(C)C)CCCCC2)cc1`, the inhibition is inactive: 0.983%.

Turning to `O=C(OCCN1CCCC1)C(O)(c1ccccc1)c1ccccc1`, the inhibition was inactive: -0.8%.

For the compound `CN(C)c1cccc(C(=O)NCC2(N(C)C)CCCCC2)c1`, the inhibition is inactive: 1.49%.

Consider `O=C(OC1CN2CCC1CC2)C(CO)(c1ccccc1)c1ccccc1` (stereo not given), for which the inhibition was inactive: -0.711%.

Take `CCN(CC)CC(C)C(C)OC(=O)C(O)(c1ccccc1)c1ccccc1` (stereo not given): the inhibition is inactive: 0.389%.

For the compound `COc1cc(SC)ccc1C(=O)NCC1(N(C)C)CCCCC1`, the inhibition was inactive: -0.918%.

Regarding `CC(C)N1C(=O)CC2(CCN(CCOC(=O)C(O)(c3ccccc3)c3ccccc3)CC2)C1=O`, the inhibition was inactive: -0.851%.

Regarding `Cc1ccc(C(=O)NCC2(N3CCCCC3)CCCCC2)cc1`, the inhibition is inactive: 0.482%.

For the compound `O=C(NCC1(N2CCCCC2)CCCCC1)c1cc([N+](=O)[O-])ccc1Cl`, the inhibition is inactive: 2.47%.

For the compound `CN1[C@@H]2CC[C@H]1CC(OC(=O)C(O)(c1ccccc1)c1ccccc1)C2` (stereo not given in full), the inhibition was inactive: -1.09%.

In the case of `C=CCN1CCN(CCOC(=O)C(O)(c2ccccc2)c2ccccc2)CC1`, the inhibition is inactive: 0.289%.

Turning to `O=C(NCC1(N2CCCCC2)CCCCC1)c1cc(F)c(F)cc1Cl`, the inhibition was inactive: -0.53%.

`COc1ccc(C(=O)NCC2(N(C)C)CCCCC2)cc1`: the inhibition was inactive: 0.638%.

As to `CCN1CCCC(OC(=O)C2(O)c3ccccc3C=Cc3ccccc32)C1` (stereo not given), the inhibition is inactive: 2.6%.

On to `Cc1cc(C(=O)NCC2(N3CCCCC3)CCCCC2)ccc1[N+](=O)[O-]`, for which the inhibition was inactive: 1.56%.

For the compound `O=C(NCC1(N2CCCCC2)CCCCC1)c1cccc(Br)c1`, the inhibition was inactive: -0.549%.

Regarding `Cc1ccccc1C(=O)NCC1(N2CCCCC2)CCCCC1`, the inhibition is inactive: 1.04%.

Regarding `CN(C)c1ccc(C(=O)NCC2(N(C)C)CCCCC2)cc1`, the inhibition is inactive: 0.611%.

In the case of `CN(C)C1CCCC1OC(=O)C(O)(c1ccccc1)c1ccccc1` (stereo not given), the inhibition was inactive: 2.25%.

A word on the inhibition: it is the drop in the measured response relative to a control, in per cent.
